Test results from article PMC3501490, “An Investigation of Hierachical Protein Recruitment to the Inhibitory Platelet Receptor, G6B-b” (PLoS ONE, 2012).

Target: FcRγ dual phosphopeptide
Test: pull-down; direct pull down assay: peptide on Streptactin beads incubated with equimolar purified SH2 domains (100 pM [sic] each for the tandem SH2 domains), 250 µl PBS, 30 minutes, room temperature; bound and unbound fractions on Coomassie-stained gels

- percent bound: 95%
Substance: Syk tandem (N+C) SH2 domains (domain or fragment)
